Values of other authors as cited in patent US12084487B2, “Nanoparticles having molecules that bind or block PD-L1 and uses in treating cancer” (Emory University, priority 2016, dated 2024).

Sequences of proteins named here, by UniProt entry; tags and fusion partners are left off. Residues count along the entry.
UniProt Q9NZQ7, 19-290: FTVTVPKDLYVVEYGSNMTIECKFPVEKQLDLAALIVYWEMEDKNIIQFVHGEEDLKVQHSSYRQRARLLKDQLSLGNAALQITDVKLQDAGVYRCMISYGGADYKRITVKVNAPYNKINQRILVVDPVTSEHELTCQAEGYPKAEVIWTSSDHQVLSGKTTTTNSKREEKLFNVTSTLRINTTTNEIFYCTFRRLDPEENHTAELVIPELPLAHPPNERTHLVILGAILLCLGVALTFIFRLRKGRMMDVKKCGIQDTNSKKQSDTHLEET

Target: PD-L1 (Homo sapiens, UniProt Q9NZQ7)
Conditions: read-out: binding affinity to PD-L1; cited from earlier work

## native PD-1: native programmed death-1 protein
  Kd: ~8.5 µM
